Amino acid sequences for entries named in this document (tags omitted). Residues count along the entry.
UniProt P06870, 25-262 limits assumed: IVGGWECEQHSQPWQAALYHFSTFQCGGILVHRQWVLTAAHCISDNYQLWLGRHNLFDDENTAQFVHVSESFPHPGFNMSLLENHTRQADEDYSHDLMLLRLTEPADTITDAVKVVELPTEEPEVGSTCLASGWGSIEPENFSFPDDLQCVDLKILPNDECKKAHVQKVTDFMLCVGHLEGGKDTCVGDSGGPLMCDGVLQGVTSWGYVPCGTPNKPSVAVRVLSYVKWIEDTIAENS
UniProt P03951, 388-625 limits assumed: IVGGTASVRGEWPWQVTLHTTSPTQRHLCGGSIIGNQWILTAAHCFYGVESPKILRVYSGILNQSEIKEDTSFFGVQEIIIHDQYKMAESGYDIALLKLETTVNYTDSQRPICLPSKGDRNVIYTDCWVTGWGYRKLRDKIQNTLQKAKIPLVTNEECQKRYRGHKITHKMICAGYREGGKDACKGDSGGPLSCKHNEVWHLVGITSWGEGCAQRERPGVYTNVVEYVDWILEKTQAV
UniProt P03951, 19-387 partner limits assumed: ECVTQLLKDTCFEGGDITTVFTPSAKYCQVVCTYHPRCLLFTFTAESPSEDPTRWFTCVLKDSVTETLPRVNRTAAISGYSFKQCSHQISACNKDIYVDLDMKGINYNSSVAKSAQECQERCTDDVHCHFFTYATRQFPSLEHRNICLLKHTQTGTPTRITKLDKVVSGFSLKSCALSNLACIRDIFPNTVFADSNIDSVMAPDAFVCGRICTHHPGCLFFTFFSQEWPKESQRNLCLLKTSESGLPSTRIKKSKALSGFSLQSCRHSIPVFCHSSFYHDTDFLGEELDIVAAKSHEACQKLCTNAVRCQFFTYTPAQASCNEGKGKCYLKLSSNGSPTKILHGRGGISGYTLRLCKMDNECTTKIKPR
UniProt P03952, 391-638 limits assumed: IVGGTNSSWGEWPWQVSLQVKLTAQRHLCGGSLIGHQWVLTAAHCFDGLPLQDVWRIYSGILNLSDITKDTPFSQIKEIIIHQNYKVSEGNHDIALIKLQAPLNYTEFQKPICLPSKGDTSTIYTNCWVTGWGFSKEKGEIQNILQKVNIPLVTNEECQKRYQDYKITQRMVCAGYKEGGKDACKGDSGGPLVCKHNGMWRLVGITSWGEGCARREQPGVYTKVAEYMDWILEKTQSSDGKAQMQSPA
UniProt P03952, 20-390 partner limits assumed: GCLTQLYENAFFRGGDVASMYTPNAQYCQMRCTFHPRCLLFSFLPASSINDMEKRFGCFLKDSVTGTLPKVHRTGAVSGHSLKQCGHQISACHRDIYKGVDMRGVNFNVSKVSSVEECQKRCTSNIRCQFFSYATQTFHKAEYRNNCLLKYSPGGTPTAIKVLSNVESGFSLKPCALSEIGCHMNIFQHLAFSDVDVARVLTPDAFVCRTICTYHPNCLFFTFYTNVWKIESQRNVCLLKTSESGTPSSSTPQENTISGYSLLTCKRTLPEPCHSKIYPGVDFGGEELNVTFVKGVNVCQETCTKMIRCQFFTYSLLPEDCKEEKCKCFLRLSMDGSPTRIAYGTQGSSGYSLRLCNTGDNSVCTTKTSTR

In patent EP4737450A1 (Longwood Pharmaceuticals (Hangzhou) Co., Ltd, priority 2023, dated 2025):

Columns and labels:
KLK1 = KLK1 (Homo sapiens, UniProt P06870); assay: Inhibitory activity against KLK1 in vitro (biochemical assay); settings: read-out: KLK1 IC50; values given in µM
FXIa = FXIa (Homo sapiens, UniProt P03951); assay: Inhibitory activity against FXIa in vitro (biochemical assay); settings: read-out: FXIa IC50; values given in µM
plasma kallikrein (PKa) = plasma kallikrein (PKa) (Homo sapiens, UniProt P03952); assay: Inhibitory activity against plasma kallikrein in vitro (fluorescence intensity enzyme assay, Pro-Phe-Arg-AMC substrate); type: biochemical; settings: read-out: PKa IC50

| IC50 (KLK1) [µM] | IC50 (FXIa) [µM] | IC50 (plasma kallikrein (PKa)) [nM] | Structure (SMILES) |
| --- | --- | --- | --- |
| > 10 | > 10 | 0.59 | O=C(NCc1nccc(C2CC2)c1F)c1cn(Cc2ccc(Cn3ccccc3=O)cc2)nc1C1CC1(F)F (single isomer, unassigned) [261] |
|  |  | 481 | COCc1nn(Cc2ccc(CN3CC4CCC3C4)cc2)cc1C(=O)NCc1nccc(OC)c1F (single isomer, unassigned) [149] |
|  |  | 979 | COCc1nn(Cc2ccc(CN3CC4CCC3C4)cc2)cc1C(=O)NCc1nccc(OC)c1F (single isomer, unassigned) [150] |
|  |  | 182 | O=C(NCc1nccc(N2CC(F)(F)C2)c1F)c1cn(Cc2ccc(Cn3ccccc3=O)cc2)nc1C1COC1 |
|  |  | 23 | O=C(NCc1nccc(C2CC2)c1F)c1cn(Cc2ccc(Cn3ccccc3=O)cc2)nc1C1CC1(F)F (single isomer, unassigned) [267] |
|  |  | 63.7 | Nc1cc2c(cn1)[C@H](NC(=O)c1ncn(Cc3ccc(Cn4ccccc4=O)cc3)n1)CO2 |

Continued, compound first:

| Structure (SMILES) | IC50 (KLK1) [µM] | IC50 (FXIa) [µM] | IC50 (plasma kallikrein (PKa)) [nM] |
| --- | --- | --- | --- |
| Cn1cnc2c1CCC2NC(=O)c1ncn(Cc2ccc(Cn3ccccc3=O)cc2)n1 (centres unmarked) | > 10 | > 10 | 10.3 |
| Nc1cc2c(cn1)C(NC(=O)c1ncn(Cc3ccc(Cn4ccccc4=O)cc3)n1)CO2 (centres unmarked) |  |  | > 100 |
| Cn1cnc2c1CC[C@H]2NC(=O)c1ncn(Cc2ccc(Cn3ccccc3=O)cc2)n1 |  |  | 12.9 |
| COc1ccc(F)c(CNC(=O)c2cn(Cc3ccc(Cn4cc(F)ccc4=O)cc3)nc2C2CC2(F)F)c1F (single isomer, unassigned) [282] | > 10 | > 10 | 2.36 |
| COc1ccc(F)c(CNC(=O)c2cn(Cc3ccc(Cn4cc(F)ccc4=O)cc3)nc2C2CC2(F)F)c1F (single isomer, unassigned) [287] |  |  | 4.54 |
| COc1ccnc(CNC(=O)c2cn(Cc3ccc(Cn4ccccc4=O)cc3)nc2CN2C(=O)C3CCC2C3)c1F (centres unmarked) |  |  | 2.87 |
| COc1ccnc(CNC(=O)c2cnn(Cc3ccc(CN4C(=O)C5CCC4C5)cc3)c2)c1F (centres unmarked) |  |  | > 100 |
| COCc1nn(Cc2ccc(CN3C4CCC3CC4)cc2)cc1C(=O)NCc1nccc(OC)c1F |  |  | > 100 |
